Values quoted from earlier work, collected in patent US20090275605A1, “3,11 b-cis-Dihydrotetrabenazine for the Treatment of a Proliferative Disease or an Inflammatory Disease” (CAMBRIDGE LABORATORIES (IRELAND) LIMITED, priority 2005, published 2009).

By UniProt entry, the sequences of proteins in these tests, tags left out.
UniProt Q01827, whole entry: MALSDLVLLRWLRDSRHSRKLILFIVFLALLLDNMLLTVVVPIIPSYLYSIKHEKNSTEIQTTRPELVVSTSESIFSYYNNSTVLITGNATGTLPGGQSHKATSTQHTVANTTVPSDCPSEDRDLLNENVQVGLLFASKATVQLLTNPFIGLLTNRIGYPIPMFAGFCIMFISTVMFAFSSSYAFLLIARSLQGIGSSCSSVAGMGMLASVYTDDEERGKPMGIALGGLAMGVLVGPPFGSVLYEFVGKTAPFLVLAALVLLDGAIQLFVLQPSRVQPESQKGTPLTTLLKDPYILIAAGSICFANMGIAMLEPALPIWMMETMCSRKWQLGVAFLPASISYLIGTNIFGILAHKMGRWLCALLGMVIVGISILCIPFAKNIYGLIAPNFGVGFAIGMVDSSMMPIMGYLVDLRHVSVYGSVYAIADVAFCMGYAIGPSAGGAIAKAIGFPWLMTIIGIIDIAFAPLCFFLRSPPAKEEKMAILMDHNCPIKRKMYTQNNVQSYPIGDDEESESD

Molecular target: VMAT2 (Rattus norvegicus, UniProt Q01827)
Details: in vitro; ratio versus (−)-α-[11C]dihydrotetrabenazine; cited from earlier work

Substance: (+)-α-dihydrotetrabenazine [(+)-α-[^11C]dihydrotetrabenazine]
- Ki for [3H]methoxytetrabenazine relative to the Ki of the (−)-α isomer: > 2000 fold
